{"sequences": {"note": "Amino acid sequences for entries named in this document (tags omitted).", "UniProt P27694, whole entry, chain 1 of 3": "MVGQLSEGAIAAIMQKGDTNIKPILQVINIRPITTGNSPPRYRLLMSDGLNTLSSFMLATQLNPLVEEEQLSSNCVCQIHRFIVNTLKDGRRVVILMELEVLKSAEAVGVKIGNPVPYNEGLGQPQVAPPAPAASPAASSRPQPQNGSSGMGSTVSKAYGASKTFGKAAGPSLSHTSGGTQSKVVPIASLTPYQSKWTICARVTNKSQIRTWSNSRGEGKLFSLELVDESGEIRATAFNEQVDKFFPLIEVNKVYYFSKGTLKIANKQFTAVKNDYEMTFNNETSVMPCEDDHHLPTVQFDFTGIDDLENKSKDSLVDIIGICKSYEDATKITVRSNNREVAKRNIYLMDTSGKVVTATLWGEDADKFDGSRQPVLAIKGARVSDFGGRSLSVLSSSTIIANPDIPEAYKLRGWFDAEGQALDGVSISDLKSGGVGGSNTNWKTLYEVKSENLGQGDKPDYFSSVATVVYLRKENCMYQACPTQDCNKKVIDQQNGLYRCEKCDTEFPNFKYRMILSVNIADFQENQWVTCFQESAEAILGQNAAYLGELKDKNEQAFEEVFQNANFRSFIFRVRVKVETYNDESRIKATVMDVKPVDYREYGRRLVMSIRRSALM", "recombinant RPA (RPA1, RPA2 and RPA3 co-purified), UniProt P15927, whole entry, chain 2 of 3": "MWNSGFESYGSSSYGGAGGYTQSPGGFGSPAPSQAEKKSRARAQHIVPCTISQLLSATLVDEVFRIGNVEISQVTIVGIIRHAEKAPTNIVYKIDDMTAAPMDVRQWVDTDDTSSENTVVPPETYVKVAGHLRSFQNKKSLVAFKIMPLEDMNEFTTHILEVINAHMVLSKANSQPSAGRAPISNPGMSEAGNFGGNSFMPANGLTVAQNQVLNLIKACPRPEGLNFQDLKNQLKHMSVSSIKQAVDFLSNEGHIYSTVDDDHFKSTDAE", "recombinant RPA (RPA1, RPA2 and RPA3 co-purified), UniProt P35244, whole entry, chain 3 of 3": "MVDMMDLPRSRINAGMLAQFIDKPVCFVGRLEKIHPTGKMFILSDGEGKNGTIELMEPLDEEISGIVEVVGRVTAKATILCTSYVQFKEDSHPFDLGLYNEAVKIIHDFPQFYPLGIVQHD"}, "source": "paper PMC8883701", "about": "(2022)", "target": "recombinant RPA (RPA1, RPA2 and RPA3 co-purified) (UniProt P27694 1-616; P15927 1-270; P35244 1-121)", "test": "BLI", "data": [{"binder": "His-tagged LAP2α (LAP2α/wt) (natural protein) MPEFLEDPSVLTKDKLKSELVANNVTLPAGEQRKDVYVQLYLQHLTARNRPPLPAGTNSKGPPDFSSDEEREPTPVLGSGAAAAGRSRAAVGRKATKKTDKPRQEDKDDLDVTELTNEDLLDQLVKYGVNPGPIVGTTRKLYEKKLLKLREQGTESRSSTPLPTISSSAENTRQNGSNDSDRYSDNEEGKKKEHKKVKSTRDIVPFSELGTTPSGGGFFQGISFPEISTRPPLGSTELQAAKKVHTSKGDLPREPLVATNLPGRGQLQKLASERNLFISCKSSHDRCLEKSSSSSSQPEHSAMLVSTAASPSLIKETTTGYYKDIVENICGREKSGIQPLCPERSHISDQSPLSSKRKALEESESSQLISPPLAQAIRDYVNSLLVQGGVGSLPGTSNSMPPLDVENIQKRIDQSKFQETEFLSPPRKVPRLSEKSVEERDSGSFVAFQNIPGSELMSSFAKTVVSHSLTTLGLEVAKQSQHDKIDASELSFPFHESILKVIEEEWQQVDRQLPSLACKYPVSSREATQILSVPKVDDEILGFISEATPLGGIQAASTESCNQQLDLALCRAYEAAASALQIATHTAFVAKAMQADISQAAQILSSDPSRTHQALGILSKTYDAASYICEAAFDEVKMAAHTMGNATVGRRYLWLKDCKINLASKNKLASTPFKGGTLFGGEVCKVIKKRGNKH", "values": [{"measurement": "koff", "result": 0.000519, "unit": "s⁻¹"}]}]}
